Reference: ChEMBL document CHEMBL6178011, “Similar Binding Mode of a 5-Sulfonylthiouracil Derivative Antagonist at Chemerin Receptors CMKLR1 and GPR1” (J Med Chem, 2025)

Assays:
Format in all cases: cell-based
Chemerin-like receptor 1 [1] = target: T1, Chemerin-like receptor 1 (Homo sapiens, UniProt Q99788); experiment: Displacement of TAMRA-labeled chemerin 9 from Nluc-tagged CMKLR1 (unknown origin) transfected in HEK293 cells assessed as inhibition constant incubated for 1 hrs by BRET assay
T1 sequence (Q99788 whole entry): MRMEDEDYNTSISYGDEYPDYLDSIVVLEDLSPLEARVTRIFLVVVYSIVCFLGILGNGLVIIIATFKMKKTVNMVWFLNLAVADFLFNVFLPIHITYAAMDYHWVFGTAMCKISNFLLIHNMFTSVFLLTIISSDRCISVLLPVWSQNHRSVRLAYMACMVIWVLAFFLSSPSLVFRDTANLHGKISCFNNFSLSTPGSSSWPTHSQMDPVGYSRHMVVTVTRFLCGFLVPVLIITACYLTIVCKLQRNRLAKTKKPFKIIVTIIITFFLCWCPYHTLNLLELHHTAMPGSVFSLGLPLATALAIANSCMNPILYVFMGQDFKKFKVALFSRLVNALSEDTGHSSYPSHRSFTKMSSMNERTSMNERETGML

Chemerin-like receptor 2 = target: T2, Chemerin-like receptor 2 (Homo sapiens, UniProt P46091); experiment: Displacement of [K14(TAMRA)]-ChemS157 from Nluc-tagged GPR1 (unknown origin) transfected in HEK293 cells assessed as inhibition constant incubated for 1 hrs by BRET assay
T2 sequence (P46091 whole entry): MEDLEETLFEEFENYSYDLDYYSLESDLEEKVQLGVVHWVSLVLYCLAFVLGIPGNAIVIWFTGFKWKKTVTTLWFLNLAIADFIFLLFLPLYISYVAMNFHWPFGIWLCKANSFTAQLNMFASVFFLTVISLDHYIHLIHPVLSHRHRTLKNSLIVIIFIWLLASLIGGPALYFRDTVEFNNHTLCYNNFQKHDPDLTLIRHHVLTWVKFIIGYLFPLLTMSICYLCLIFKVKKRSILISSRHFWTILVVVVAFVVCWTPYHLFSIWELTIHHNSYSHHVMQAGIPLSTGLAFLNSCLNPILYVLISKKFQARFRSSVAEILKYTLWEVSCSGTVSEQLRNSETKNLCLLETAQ

Chemerin-like receptor 1 [2] = target: T1, Chemerin-like receptor 1; experiment: Displacement of [K14(TAMRA)]-ChemS157 from Nluc-tagged CMKLR1 (unknown origin) transfected in HEK293 cells assessed as inhibition constant incubated for 1 hrs by BRET assay

Ki (Chemerin-like receptor 1 [1]): Not_determined | Ki (Chemerin-like receptor 2): Not_determined | Ki (Chemerin-like receptor 1 [2]): Not_determined
SMILES: COc1ccc(C)cc1NC(=O)CSc1nc(=O)c(S(=O)(=O)c2ccc(C)c(Cl)c2)c[nH]1
